Measured values reported in US6350913B1, “3-alkoxybenzylamine derivatives and their use as medicines for treating schizophrenia” (Pierre Fabre Medicament, priority 1998, dated 2002).

Test: Cataleptogenic power (propensity to induce extrapyramidal side effects)
Conditions: rat, in vivo, ip; rats, i.p. administration; read-out: Catalepsy ED50

Q: Which ED50 does the source give for Cc1nc2n(c(=O)c1CCN1CCC(c3noc4cc(F)ccc34)CC1)CCCC2 [Risperidone, reference compound] here?
A: Its ED50 is 4.6 mg/kg.
